{
  "sequences": {"note": "Protein sequences, listed by entry. Tags and fused reporters are not part of them. Residues count along the entry.", "UniProt G1T8E2, 1-432": "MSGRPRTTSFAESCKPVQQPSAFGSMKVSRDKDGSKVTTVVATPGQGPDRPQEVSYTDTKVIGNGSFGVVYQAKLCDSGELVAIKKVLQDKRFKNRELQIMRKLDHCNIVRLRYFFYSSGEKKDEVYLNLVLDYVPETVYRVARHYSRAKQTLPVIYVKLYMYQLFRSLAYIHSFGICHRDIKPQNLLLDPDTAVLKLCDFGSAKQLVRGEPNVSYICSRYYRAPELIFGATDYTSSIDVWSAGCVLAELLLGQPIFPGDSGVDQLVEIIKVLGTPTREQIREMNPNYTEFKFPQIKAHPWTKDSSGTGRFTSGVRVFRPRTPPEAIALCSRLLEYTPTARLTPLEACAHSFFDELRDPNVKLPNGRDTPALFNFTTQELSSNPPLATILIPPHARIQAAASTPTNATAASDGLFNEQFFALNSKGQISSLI"},
  "source": "patent US7476676B2",
  "about": "“Methods for increasing bone formation using inhibitors of glycogen synthase kinase-3β” (Roche Palo Alto LLC, priority 2002, dated 2009)",
  "target": "truncated form of recombinant rabbit GSK-3β enzyme (Oryctolagus cuniculus, UniProt G1T8E2)",
  "assay": "Inhibition of Glycogen Synthase Kinase-3β in vitro assay",
  "assay_type": "biochemical",
  "settings": "tested form: HCl",
  "data": [
    {"smiles": "Cn1cc(C2=C(c3cccc(OCCN)c3)C(=O)NC2=O)c2ccccc21", "values": [
      {"measurement": "IC50", "value": 20, "unit": "nM"}
    ]}
  ]
}
